# Experimental data published in patent publication US20240124610A1, “METHODS FOR TREATING HER2-NEGATIVE OR HER2-LOW CANCER” (Washington University, priority 2022, published 2024).
# Tests used:
# HER2-low patients = details: PMID 31821109; cited from earlier work
# [1] = system: BCAR4 gene fusion (L-B fusion) expressing cells; assay: Cell growth (MTT) assay with Herceptin (FIG. 43); format: cell-based; details: L-B fusion expression, preliminary data
# From the text: FIG. 43 is a graph showing BCAR4-expressing cells respond to Herceptin (trastuzumab) in accordance with the present disclosure.
# BCAR4-expressing cells respond to Herceptin (trastuzumab) (see e.g., FIG. 43).
substance,measurement,setting,value
trastuzumab [Herceptin],effectiveness in HER2-low patients,HER2-low patients,ineffective
same,cell response in cell growth (MTT) assays,[1],increased cell response
